# Data reported in patent publication US20190307740A1, “COMPOSITIONS AND METHODS FOR TREATMENT RELATED TO FALL AND FALL FREQUENCY IN NEURODEGENERATIVE DISEASES” (Neurocea, LLC, priority 2016, published 2019).
# Columns and labels:
# [1] = tested on: rats with a unilateral 6-hydroxydopamine lesion; assay: LIDs in rats with a unilateral 6-hydroxydopamine lesion; assay type: in vivo; conditions: parkinsonian rat model of LIDs
# [2] = tested on: nAChR; conditions: cited from earlier work
smiles,measurement,setting,value
O=C(C1CC1)N1CC2CC(C1)N2,effect on LIDs,[1],reduced LIDs to varying extents
same,Type of agonist,[2],Full
